The values below come from patent US6297281A, “Association of no syntase inhibitors with trappers of oxygen reactive forms” (priority 1996, dated 2001).

The target of assay [1] is T1, inducible NO synthase (Mus musculus, UniProt P29477).
T1 construct: The NO synthase is isolated with an extraction buffer; endogenous in cells; sonicated, 100,000 g ultracentrifuged extract
Kind of assay: In vitro effect on inducible NO synthase of murine macrophages J774A1 (formation of citrulline). The following applies: NO synthase isolated from LPS/IFN-γ activated J774A1 macrophages, pH 7.4. The format is biochemical. The method, then: 2) In vitro effect on inducible NO synthase of murine macrophages J774A1
Murine macrophages J774A1 produce a large quantity of nitrogen monoxide after activation by lipopolysaccharides (LPS) and interferon-γ(IFN-γ). The cells are cultivated in DMEM medium (Dulbecco's Modified Eagle Medium) enriched with 10% foetal calf serum at 37° C. under an atmosphere of 5% CO2 after activation by LPS and IFN-γ. They are seeded in a quantity of 5000 cells/cm^2 in 150 cm^2 bottles. The incubations are carried out in the presence of LPS (1g/ml) and murine IFN-γ (50 U/ml) in DMEM enriched with 10% foetal calf serum. The NO synthase is isolated with an extraction buffer (HEPES 50 mM, pH 7.4, dithiothreitol 0.5 mM, pepstatin A 1 mg/ml, leupeptin 1 mg/ml, soya trypsin inhibitor 1 mg/ml, antipain 1 mg/ml, and PMSF 10 mg/ml). After sonication in the extraction buffer at 4° C., the homogenised products are ultracentrifuged (100,000 g with 3,5-di-tert.butyl-4-hydroxybenzoic acid 4° C. for 1 h). The protocol is then identical to that of cerebellum NO synthase except for the composition of the incubation buffer (100 mM of HEPES, pH 7.4, 1 mM dithiothreitol, 2.5 mM of CaCl2, 10 M of tetrahydrobiopterin, FAD 10 μM, BSA 1 mg/ml, 2 mM of reduced NADPH). […]

The target of assay [2] is T1, inducible NO synthase. Briefly: In vitro effect on the production of nitrites by murine macrophages J774A1. The format is cell-based. The following applies: J774A1 cells, LPS 1 μg/ml + IFN-γ 50 U/ml, 48 hours; read-out: IC50 Inducible NO synthase (formation of nitrites). The method, then:
3) In vitro effect on the production of nitrites by murine macrophages J774A1
This test is used to measure the inhibitory activity of the products on inducible NO synthase of culture cells. The cells are cultivated in DMEM medium (Dulbecco's Modified Eagle Medium) enriched with 10% foetal calf serum at 37° C. under an atmosphere of 5% CO2. For the experiments, they are distributed in 96-well plates (50,000 cells per well) and incubated in DMEM without phenol red containing 10% foetal calf serum with LPS (1 μg/ml) and murine IFN-γ(50 U/ml) in the presence or absence of the products to be tested. After 48 hours, the concentration of nitrites in the culture media, degradation products of nitrogen monoxide, is measured by a colorimetric method according to Green et al. (Analytical Biochemistry, 126, 131-138 (1982)). The results are expressed in terms of the IC50 value and are summarised in the table of paragraph 2 (third column of results entitled "inducible NO synthase, formation of nitrites").

A word on the IC50: it is the concentration at which inhibition is half-maximal.

As to `O=[N+]([O-])c1cccc2cn[nH]c12` [Example 2 A, 7-nitroindazole], the IC50 on inducible NO synthase [1] was 25 µM; at inducible NO synthase [2] it was 51 µM.
